From patent US8044068B2, “Aminopyrrolidine compound” (Taisho Pharmaceutical Co., Ltd, priority 2006, dated 2011)

Protein sequences, listed by entry. Tags and fused reporters are not part of them.
UniProt P32245, whole entry: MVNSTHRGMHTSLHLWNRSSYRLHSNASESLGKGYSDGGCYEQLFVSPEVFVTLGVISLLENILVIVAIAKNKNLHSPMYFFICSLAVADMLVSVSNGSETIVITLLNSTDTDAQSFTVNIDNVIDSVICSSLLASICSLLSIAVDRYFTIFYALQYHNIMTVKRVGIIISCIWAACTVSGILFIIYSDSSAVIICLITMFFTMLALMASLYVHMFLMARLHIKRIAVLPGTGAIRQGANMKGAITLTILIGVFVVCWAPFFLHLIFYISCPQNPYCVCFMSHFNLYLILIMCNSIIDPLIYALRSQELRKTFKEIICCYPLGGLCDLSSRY

Molecular target: human MC4 receptor (Homo sapiens, UniProt P32245)
Experiment: MC4 receptor binding experiment ([125I]Nle4-D-Phe7-α-MSH displacement)
Conditions: human MC4 receptor expressing HEK-293 cell membrane; [125I]Nle4-D-Phe7-α-MSH 0.2 nM, 25° C.
Protocol: The MC4 receptor binding experiment was performed according to the method described in Pharmacology & Toxicology, 79, 161-165, 1996. The human MC4 receptor expressing-cell membrane obtained by expressing the human MC4 receptor in a HEK-293 cell was purchased from Biolinks K.K. The cell membrane was homogenized with 50 mM tris hydrochloride buffer (pH 7.4) containing 2 mM ethylenediaminetetraacetic acid, 10 mM calcium chloride, and 100 μM phenylmethylsulfonyl fluoride. The homogenate was centrifuged at 48,000×g at 4° C. for 20 min. The sediment obtained by centrifugation was rehomogenized with the same buffer, and the homogenate was centrifuged at 48,000×g at 4° C. for 20 min. This procedure was repeated twice. The sediment was suspended in 50 mM tris hydrochloride buffer (pH 7.4) containing 2 mM ethylenediaminetetraacetic acid, 10 mM calcium chloride, 100 μM phenylmethylsulfonyl fluoride, and 0.1% bovine serum albumin at a protein concentration of 100 μg/ml, and the suspension was used as a crude membrane preparation for the binding experiment. The crude membrane preparation (0.25 ml, 25 μg protein) was reacted with [^125I]Nle^4-D-Phe^7-α-MSH (final concentration, 0.2 nM) at 25° C. for 120 min. After completion of the reaction, the reaction solution was filtered by suction, using a cell harvester for the receptor binding experiment, onto a GF/C glass fiber filter paper immersed in 50 mM tris hydrochloride buffer (pH 7.4) containing 0.5% bovine serum for 2 h. Radioactivity on the filter paper was measured using a γ counter. The quantity of binding in the presence of 1 μM Nle^4-D-Phe^7-α-MSH was obtained as nonspecific binding, and specific binding was obtained by deducting the nonspecific binding from the total quantity, binding in the absence of 1 μM Nle^4-D-Phe^7-α-MSH. The test drug was dissolved in 100% DMSO solution and added to the membrane preparation at the same time as [^125I]Nle^4-D-Phe^7-α-MSH. The IC50 value was obtained from the inhibition curve in the range of 10^−10 to 10^−5 M. The binding test results of representative compounds are shown in Table 21 as examples.

Row | pIC50 | Structure (SMILES)
1 | 7.52 | Cc1cc(N2CCC(S(C)(=O)=O)CC2)cc(N[C@H]2CCN(C(=O)Cc3ccc(OC(F)(F)F)cc3)C2)n1
2 | 7.49 | CO[C@@H]1CCN(c2cc(C)nc(N[C@H]3CCN(C(=O)Cc4ccc(OC(F)(F)F)cc4)C3)c2)C1
3 | 7.59 | Cc1cc(N2CCOCC2)cc(N[C@H]2CCN(C(=O)Cc3ccc(OC(F)(F)F)cc3)C2)n1
4 | 7.28 | Cc1cc2nc(N[C@@H]3CN(C(=O)Cc4ccc(OC(F)(F)F)cc4)C[C@H]3O)cc(N(C)C)c2s1
5 | 7.46 | CN(C)c1nc(N[C@H]2CCN(C(=O)Cc3ccc(OC(F)(F)F)cc3)C2)nc2cscc12
6 | 7.64 | CS(=O)(=O)N1CC[C@@H](Nc2cc(N[C@H]3CCN(C(=O)Cc4ccc(OC(F)(F)F)cc4)C3)nc3ccsc23)C1
7 | 7.31 | CN(C)c1cc(N[C@H]2CCN(C(=O)Cc3ccc(OC(F)(F)F)cc3)C2)nc2cscc12
8 | 7.13 | Cc1cc2nc(N[C@H]3CCN(C(=O)Cc4ccc(OC(F)(F)F)cc4)C3)cc(N(C)C)c2s1

Same assay, conditions: human MC4 receptor expressing HEK-293 cell membrane; [125I]Nle4-D-Phe7-α-MSH 0.2 nM, 25° C.; tested form: 2HCl

Row | pIC50 | Structure (SMILES)
9 | 8.17 | O=C(Cc1ccc(OC(F)(F)F)cc1)N1CC[C@H](Nc2nc(N3CCNCC3)c3ccccc3n2)C1
10 | 7.80 | CC(C(=O)N1CC[C@H](Nc2nc(N3CCNCC3)c3ccccc3n2)C1)c1ccc(Cl)cc1 (stereo partly shown)
11 | 8.42 | O=C(Cc1ccccc1-c1ccc(F)c(Cl)c1)N1CC[C@H](Nc2nc(N3CCNCC3)c3ccccc3n2)C1
12 | 8.29 | O=C(Cc1ccccc1-c1ccc(F)c(F)c1)N1CC[C@H](Nc2nc(N3CCNCC3)c3ccccc3n2)C1
13 | 8.64 | Cc1cc(N2CCC(N)C2)nc(N[C@H]2CCN(C(=O)Cc3ccc(OC(F)(F)F)cc3)C2)n1 (stereo partly shown)

Same assay, conditions: human MC4 receptor expressing HEK-293 cell membrane; [125I]Nle4-D-Phe7-α-MSH 0.2 nM, 25° C.; tested form: HCl

Row | pIC50 | Structure (SMILES)
14 | 7.18 | Cc1cc(N2CCC(C(=O)N(C)C)CC2)nc(N[C@H]2CCN(C(=O)Cc3ccc(OC(F)(F)F)cc3)C2)n1
15 | 7.55 | CN(C)c1cc(N[C@H]2CCN(C(=O)Cc3ccc(OC(F)(F)F)cc3)C2)nc2ccccc12
16 | 7.00 | Cc1cc(N(C)C)nc(N[C@@H]2CN(C(=O)Cc3ccc(OC(F)(F)F)cc3)C[C@H]2O)n1 (relative stereo)
17 | 7.68 | O=C(Cc1ccc(OC(F)(F)F)cc1)N1CC[C@H](Nc2nc(N3CCOCC3)c3ccc(F)cc3n2)C1
18 | 6.74 | C[C@@H]1CCC[C@H](C)N1c1nc(N[C@H]2CCN(C(=O)Cc3ccccc3-c3ccccc3)C2)nc2ccccc12

Same assay, conditions: human MC4 receptor expressing HEK-293 cell membrane; [125I]Nle4-D-Phe7-α-MSH 0.2 nM, 25° C.; tested form: maleate

Row | pIC50 | Structure (SMILES)
19 | 7.52 | Cc1cc(N2CCC(C(N)=O)CC2)nc(N[C@H]2CCN(C(=O)Cc3ccc(OC(F)(F)F)cc3)C2)n1
20 | 7.22 | Cc1cc(NCCO)nc(N[C@H]2CCN(C(=O)Cc3ccc(OC(F)(F)F)cc3)C2)n1
21 | 7.62 | O=C(Cc1ccc(OC(F)(F)F)cc1)N1CC[C@H](Nc2nc(NCCO)c3cscc3n2)C1
22 | 7.18 | O=C(Cc1ccc(OC(F)(F)F)cc1)N1CC[C@H](Nc2nc(NCCO)c3sccc3n2)C1

pIC50: −log10 of the molar value.
